# Data: patent EP0318859A2, “N-substituted mercaptopropanamide derivatives” (Dainippon Pharmaceutical Co., Ltd., priority 1987, dated 1989)
# Chains of the proteins cited; added tags and fusions are not shown.
# UniProt P07861, whole entry: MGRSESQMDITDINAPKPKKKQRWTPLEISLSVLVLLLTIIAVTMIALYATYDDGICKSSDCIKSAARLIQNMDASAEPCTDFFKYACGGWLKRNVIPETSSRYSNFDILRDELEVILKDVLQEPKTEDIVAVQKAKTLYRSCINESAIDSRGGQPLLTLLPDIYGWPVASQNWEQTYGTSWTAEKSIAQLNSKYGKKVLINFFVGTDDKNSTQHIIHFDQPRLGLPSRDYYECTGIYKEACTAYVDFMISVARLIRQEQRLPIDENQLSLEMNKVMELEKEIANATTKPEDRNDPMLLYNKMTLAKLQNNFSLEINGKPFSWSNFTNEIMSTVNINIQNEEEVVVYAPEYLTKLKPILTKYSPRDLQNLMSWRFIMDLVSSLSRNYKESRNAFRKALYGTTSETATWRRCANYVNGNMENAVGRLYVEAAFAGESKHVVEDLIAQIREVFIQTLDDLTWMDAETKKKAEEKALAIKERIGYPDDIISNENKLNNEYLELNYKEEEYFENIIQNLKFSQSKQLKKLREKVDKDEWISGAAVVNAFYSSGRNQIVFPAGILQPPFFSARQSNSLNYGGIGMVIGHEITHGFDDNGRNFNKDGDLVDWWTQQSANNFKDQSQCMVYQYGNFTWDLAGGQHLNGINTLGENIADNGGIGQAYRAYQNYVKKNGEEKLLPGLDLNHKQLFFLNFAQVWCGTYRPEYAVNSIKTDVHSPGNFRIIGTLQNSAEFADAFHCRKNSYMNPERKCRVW
# Experiments:
# [1] = test system: enkephalinase; experiment: Enkephalinase inhibitory activity in vivo (potentiation of the analgesic activity of DAME, tail pressure pain); details: p.o., 30 minutes before intracisternal DAME; pressure pain threshold measured 5 minutes after DAME; male Std:ddy mice; tested form: free acid
# Procedure: (2) Enkephalinase inhibitory activity in vivo
# (Potentiation of the analgesic activity of DAME)
# Pressure pain was induced by pressing the tail of male Std:ddy mice (weighing 20 - 26 g) using an apparatus for pressure measurement. The pressure pain threshold (biting response) was measured as mm. Test compound, dissolved or suspended in 0.5 % gum tragacanth aqueous solution, was given orally 30 minutes before intracisternaly administration of D-Ala²-Met⁵-enkephalin (DAME). Five minutes after administration of DAME, the pressure pain threshold was measured, and the potentiation activity of test compounds on the analgesic effect of DAME was tested.
# [2] = molecular target: enkephalinase (Rattus norvegicus, UniProt P07861); experiment: Enkephalinase inhibitory activity in vitro ([³H]-leucine-enkephalin degradation); details: read-out: IC₅₀; rat striatum enkephalinase; substrate [³H]-leucine-enkephalin 20 nM; 1 hour at 37°C; tested form: free acid
# Procedure: (3) Enkephalinase inhibitory activity in vitro
# Enkephalin degrading enzymes were separated according to the method described by Gorenstein and Snyder (Life Science, 25, 2065 (1979)).
# Male Std:Wistar rats were decapitated and the striata were removed. These were homogenized in 30 volumes of 50 mM Tris-HCl buffer (pH 7.4) and centrifuged for 15 minutes at 1,000 x g. The supernatant was centrifuged for 15 minutes at 50,000 x g. The pellet was washed three times with the same buffer and then suspended in 15 volumes of 50 mM Tris-HCl buffer (pH 7.4) containing 1 % Triton X-100, followed by incubation for 45 minutes at 37°C. After centrifugation for 1 hour at 100,000 x g, the supernatant was applied onto DEAE-cellulose ion exchange chromatography column. The fraction containing enkephalin dipeptidylcarboxypeptidase was used as enkephalinase sample.
# (ii) Measurement of inhibitory activity
# After preincubation of test compound and enkephalinase for 5 minutes at 37°C, [³H]-leucine-enkephalin (substrate) was added to the reaction mixture and then the mixture was incubated for 1 hour at 37°C (final volume: 100 µl, final concentration of substarate: 20 nM). […] The IC₅₀-value of test compounds was calculated from the inhibitory rates, estimated from the difference between the enzyme activities in the absence and the presence of test compound.
structure (smiles),measurement,setting,value
O=C(O)c1cccc(NC(=O)C(CS)Cc2ccccc2)c1 (centres unmarked),ED₅₀,[1],51.0 mg/kg
same,IC50,[2],2.1 nM
